{"source": "patent US4954483A", "about": "“Carboxylic acid ester derivatives or deglucoteicoplanin” (Gruppo Lepetit, S.p.A., priority 1984, dated 1990)", "experiment": "Potentiometric titration in methylcellosolve/water 4:1 (pKa, pH1/2)", "assay_type": "physicochemical", "settings": "methylcellosolve/water 4:1 (v/v), excess 0.01 M HCl, titrated with 0.01 M NaOH", "description": "^(c) the samples are dissolved in methylcellosolve ®/water 4:1\n(v/v), an excess of 0.01 M hydrogen chloride in the same mixture is added\nthereto and the resulting solution is titrated with 0.01 M NaOH in the […]"}
{"substance": "Deglucoteicoplanin pivaloyloxymethyl ester [Example 6]", "values": [{"measurement": "pKa", "value": 6.52}]}
